By UniProt entry, the sequences of proteins in these tests, tags left out.
UniProt Q9Y463, whole entry: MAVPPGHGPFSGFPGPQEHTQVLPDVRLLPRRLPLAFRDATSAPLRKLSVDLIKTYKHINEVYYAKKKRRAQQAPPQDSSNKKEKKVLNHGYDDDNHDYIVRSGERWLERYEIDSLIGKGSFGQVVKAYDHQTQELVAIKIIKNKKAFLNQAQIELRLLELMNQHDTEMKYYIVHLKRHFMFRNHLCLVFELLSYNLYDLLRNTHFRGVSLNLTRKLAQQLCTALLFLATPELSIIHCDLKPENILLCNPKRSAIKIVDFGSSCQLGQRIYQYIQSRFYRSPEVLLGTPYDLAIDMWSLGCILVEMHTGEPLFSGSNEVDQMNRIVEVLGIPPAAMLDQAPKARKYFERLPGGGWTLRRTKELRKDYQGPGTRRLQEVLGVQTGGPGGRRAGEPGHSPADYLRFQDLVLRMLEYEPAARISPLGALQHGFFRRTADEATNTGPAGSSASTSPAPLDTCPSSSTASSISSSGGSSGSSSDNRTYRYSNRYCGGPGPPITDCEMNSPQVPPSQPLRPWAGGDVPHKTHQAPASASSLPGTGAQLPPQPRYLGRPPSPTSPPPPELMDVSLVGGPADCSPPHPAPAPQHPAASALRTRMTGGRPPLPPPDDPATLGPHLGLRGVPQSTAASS

In PMC3968014, “Design and Synthesis of a Library of Lead-Like 2,4-Bisheterocyclic Substituted Thiophenes as Selective Dyrk/Clk Inhibitors” (PLoS ONE, 2014):

Biological target: T1, Dyrk1B (Homo sapiens, UniProt Q9Y463)
T1 construct: purchased Life Technologies PV4649 (LOT # 877059G)
Experiment: Dyrk1B kinase assay (32P-ATP, Woodtide)
Assay type: biochemical

c1cncc(-c2csc(-c3cncs3)c2)c1 [Compound 48, 3-[5-(1,3-thiazol-5-yl)thiophen-3-yl]pyridine]
LE (Dyrk1B): 0.65 kcal/(mol*HA)
